Test results as given in paper PMC2958839, “Multiple FadD Acyl-CoA Synthetases Contribute to Differential Fatty Acid Degradation and Virulence in Pseudomonas aeruginosa” (PLoS ONE, 2010).

What was measured:
Test in all cases: purified protein
[1] = tested on: Nc1ncnc2c1ncn2[C@@H]1O[C@H](COP(=O)(O)OP(=O)(O)OP(=O)(O)O)[C@@H](O)[C@H]1O; details: 1 mM C18:1 Δ9, 0.5 mM CoASH, 0.05-2.5 mM ATP, 10 mM MgCl2, 0.1% Triton X-100, pH 7.2, 37°C, printed unit mM conflicts with printed kcat/Km (implies µM)
CCCC(=O)O = details: 5 mM ATP, 0.5 mM CoASH, 30-300 µM FA, 10 mM MgCl2, 0.1% Triton X-100, pH 7.2, 37°C, printed unit mM conflicts with printed kcat/Km and FA range (implies µM)
CCCCCCCCCC(=O)O = details: 5 mM ATP, 0.5 mM CoASH, 30-300 µM FA, 10 mM MgCl2, 0.1% Triton X-100, pH 7.2, 37°C, printed unit mM conflicts with printed kcat/Km and FA range (implies µM)

In the case of FadD1 (Pseudomonas aeruginosa PAO1), the Km [1] is reported as 10.6 mM and the kcat [1] is reported as 0.219 s⁻¹.

FadD2 (Pseudomonas aeruginosa PAO1) showed a kcat (CCCC(=O)O) of 0.172 s⁻¹, a Km [1] of 10.9 mM and a kcat [1] of 0.187 s⁻¹. The kcat (CCCCCCCCCC(=O)O) was 0.187 s⁻¹.
